# From patent US12172946B2, “Compound containing diphenylmethane structure and use thereof” (GUANGZHOU TROJAN PHARMATEC LTD., priority 2019, dated 2024)
# Assay: solubility of the compound in common solvents
# Format: physicochemical
# Conditions: 25-30° C.
# Procedure: The solubility of the compound of the present invention in common solvents was investigated (25-30° C.), and the results are shown in Table 1. It can be seen from Table 1 that the compound of the present invention has good solubility in all of heptane, isopropyl acetate (i-PrOAc), methyl tert-butyl ether (MTBE) and N,N-dimethylformamide (DMF), and particularly, the solubility in N,N-dimethylformamide is much higher than Comparative Examples.
substance,measurement,setting,value
"(2-(2-(3,4,5-tri(isomeric tridecyloxy)-benzamido)-ethoxy)-ethoxy)-4-methoxy-benzylamine [DPA-025]",solubility in DMSO,DMSO,<1%
same,solubility in MeOH,MeOH,<1%
same,solubility in DMF,"N,N-dimethylformamide",>100%
same,solubility in Heptane,heptane,>100%
same,solubility in i-PrOAc,isopropyl acetate,>100%
same,solubility in MTBE,methyl tert-butyl ether,>100%
